Measured values as given in US9248145B2, “Two alkylresorcinol synthase genes from sorghum; cloning, expression, transformation and characterization” (The United States of America, as represented by The …, priority 2010, dated 2016).

Assays:
Assay in all cases: Polyketide synthase enzyme assay, alkylresorcinol synthase activity
Assay type in all cases: biochemical, Oryza sativa
recombinant Os05g12180 = details: preferred substrate
Method: (§1) Polyketide synthase enzyme assays, performed in triplicate, contained 100 mM potassium phosphate buffer (pH 7.0), 40 μM malonyl-CoA, 25 μM starter unit (e.g., palmitoyl-CoA), and 2 μg protein in a 200 μL volume at 30° C. for 15 min. […] Reactions were quenched by addition of 10 μL of 20% HCl, and products were extracted by phase partitioning with 1 ml of ethyl acetate. The organic phase (upper layer) obtained by centrifugation at ˜14,000×g for 1 min was transferred to a fresh tube, dried under vacuum, and subsequently analyzed by GC-EI-MS as a trimethysilyl (TMS) derivative. Product formation was quantified using selective ion monitoring at m/z 268, a fragment ion common to all alkylresorcinols, generated by benzylic cleavage of the alkyl side chain. The identification of the m/z 268 [(5-methyl-1,3 phenylene)bis(oxy)bis(TMS)]^+ base ion and the parent [M]^+ provide confirmation of the 5-alkylresorcinolic structure as well as the length and degree of saturation of the associated side chain (Occolowitz, 1964. Anal. Chem. 36:2177-2181; Suzuki et al. 1996, supra; Suzuki at al. 2003, supra).
(§2) Enzyme assays, performed in triplicate, for starter unit CoA kinetics contained 100 mM potassium phosphate buffer (pH 7.0), 40 μM [2-^14C]-malonyl-CoA (50-60 mCi/mmol, 1.85-2.22 GBq/mmol; American Radiolabeled Chemicals, Inc., St. Louis, Mo.), 1.43-10 μM starter unit (e.g., palmitoyl-CoA), and 0.75 μg protein in a 200 μL volume at 30° C. for 5 min. Enzyme assays for malonyl-CoA kinetics contained 100 mM potassium phosphate buffer (pH 7.0), 1.66-25 μM [2-^14C]-malonyl-CoA, 25 μM starter unit (palmitoleoyl-CoA), and 0.75 μg protein in a 200 μL volume at 30° C. for 5 min. Reactions were quenched by addition of 10 μL of 20% HCl. The products were extracted as described above, and were separated by thin layer chromatography (silica gel 60 F254; chloroform:ethyl acetate=70:30; 15 min). Product detection and formation was quantified through the use of the Cyclone storage phosphor system and OptiQuant 3.0 image analysis software (PerkinElmer, Wellesley, Mass.). […]

recombinant Os10g08620 = details: preferred substrate
Method: as §1, §2

recombinant Os10g07040 = tested on: recombinant Os10g07040
Method: as §1, §2

maximal 5-alkylresorcinol-forming activity (recombinant Os05g12180): 66.6 pkat mg^−1
maximal 5-alkylresorcinol-forming activity (recombinant Os10g08620): 48.6 pkat mg^−1
maximal 5-alkylresorcinol-forming activity (recombinant Os10g07040): 13.2 pkat mg^−1
Compound: CCCCCCCCCCCCCC(=O)SCCNC(=O)CCNC(=O)[C@H](O)C(C)(C)COP(=O)(O)OP(=O)(O)OC[C@H]1O[C@@H](n2cnc3c(N)ncnc32)[C@H](O)[C@@H]1OP(=O)(O)O [myristoyl-CoA]
